Test results reported in article PMC9822058, “In Vitro Evaluation of α-amylase and α-glucosidase Inhibition of 2,3-Epoxyprocyanidin C1 and Other Constituents from Pterocarpus erinaceus Poir” (Molecules, 2022).

By UniProt entry, the sequences of proteins in these tests, tags left out. Residues count along the entry.
UniProt P06278, 30-512: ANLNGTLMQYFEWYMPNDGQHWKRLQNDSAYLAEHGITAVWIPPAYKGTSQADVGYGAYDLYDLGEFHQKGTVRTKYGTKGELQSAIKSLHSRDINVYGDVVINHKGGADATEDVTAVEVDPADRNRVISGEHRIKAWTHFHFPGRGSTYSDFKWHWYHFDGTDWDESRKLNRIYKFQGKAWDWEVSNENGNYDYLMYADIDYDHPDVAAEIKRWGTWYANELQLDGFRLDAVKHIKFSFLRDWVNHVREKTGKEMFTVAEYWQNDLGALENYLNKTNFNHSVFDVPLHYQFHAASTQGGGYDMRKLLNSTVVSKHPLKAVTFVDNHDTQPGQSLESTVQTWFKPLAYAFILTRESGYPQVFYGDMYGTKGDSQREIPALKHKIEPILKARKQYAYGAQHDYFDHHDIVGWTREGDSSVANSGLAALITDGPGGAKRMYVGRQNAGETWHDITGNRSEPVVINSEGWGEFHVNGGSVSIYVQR

Molecular target: α-amylase from Bacillus licheniformis (Bacillus licheniformis, UniProt P06278)
Test: biochemical
Description: The α-amylase inhibitory activity was evaluated by using the starch– iodine method with some modifications. The enzyme α-amylase from Bacillus licheniformis was used and enzyme solution was prepared with phosphate buffer (20 mM pH = 6.9 phosphate buffer prepared with 6 mM NaCl); then, 50 µL of α-amylase and 25 µL of different concentrations of compound or extract solutions were mixed in a 96-well microplate. The mixture was pre-incubated for 10 min at 37 °C; then, 50 µL of starch solution (0.05%) was added and incubated for 10 min at 37 °C. Following incubation, the reaction was completed by adding HCl (0.1 M, 25 µL) and Lugol (100 µL) solutions, and the absorbance was recorded at 565 nm.
Acarbose was used as a standard compound for both analyses.

SMILES: C[C@H]1O[C@H](O[C@H]2[C@H](O)[C@@H](O)[C@@H](O[C@H]3[C@H](O)[C@@H](O)C(O)O[C@@H]3CO)O[C@@H]2CO)[C@H](O)[C@@H](O)[C@@H]1N[C@H]1C=C(CO)[C@@H](O)[C@H](O)[C@H]1O (stereo partly shown) [Acarbose, reference compound]
- IC50: 40.9 µM
